The record followed here is US8207155B2, “Sulfonyl-azetidin-3-yl-methylamine amide analogs as GlyTl inhibitors, methods for making same, and use of same in treating psychiatric disorders” (Vanderbilt University, priority 2009, dated 2012).

The target of the experiment is T1, GlyT1 (Homo sapiens, UniProt P48067).
T1 construct: Human placental choriocarcinoma cells endogenously expressing GlyT1; endogenous in cells; host or cells: JAR human placental choriocarcinoma cells
T1 sequence (P48067 1-706): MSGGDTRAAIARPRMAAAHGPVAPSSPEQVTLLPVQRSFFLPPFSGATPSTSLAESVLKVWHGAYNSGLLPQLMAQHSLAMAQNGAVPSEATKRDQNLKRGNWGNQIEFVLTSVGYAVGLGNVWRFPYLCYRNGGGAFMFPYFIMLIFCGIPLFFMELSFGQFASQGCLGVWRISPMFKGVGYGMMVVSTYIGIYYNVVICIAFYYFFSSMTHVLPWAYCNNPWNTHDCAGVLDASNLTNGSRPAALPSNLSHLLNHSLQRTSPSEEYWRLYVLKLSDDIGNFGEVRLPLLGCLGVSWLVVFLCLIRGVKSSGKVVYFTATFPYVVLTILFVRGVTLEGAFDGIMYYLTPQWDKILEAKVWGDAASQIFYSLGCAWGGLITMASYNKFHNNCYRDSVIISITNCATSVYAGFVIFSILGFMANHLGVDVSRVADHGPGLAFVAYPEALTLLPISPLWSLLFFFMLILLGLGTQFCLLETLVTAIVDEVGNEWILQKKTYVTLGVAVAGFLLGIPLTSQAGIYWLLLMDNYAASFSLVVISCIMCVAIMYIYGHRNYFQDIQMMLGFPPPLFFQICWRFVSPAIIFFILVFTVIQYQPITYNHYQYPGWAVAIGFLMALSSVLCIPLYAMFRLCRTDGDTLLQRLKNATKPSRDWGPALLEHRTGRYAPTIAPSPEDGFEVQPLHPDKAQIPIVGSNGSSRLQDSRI
Briefly: GlyT1 [14C]-glycine uptake inhibition in human placental choriocarcinoma (JAR) cells. The format is cell-based. Particulars: inhibition of specific [14C]-glycine uptake, cells endogenously expressing GlyT1, read-out: Potency (IC50). The procedure:
Human placental choriocarcinoma cells endogenously expressing GlyT1 can be cultured using standard conditions. Cells can then be grown at 37° C. in a humidified atmosphere 40-48 hours before the assay. Culture medium can be removed from the culture plate, and cells can be incubated with an amount of TB1A buffer with or without the compounds of the present invention for a sufficient period of time. Then an amount of [^14C]-glycine diluted with TB1A can be added to each well. After incubation the microplates can be sealed and counted. Non-specific uptake of [^14C]-glycine can be determined in the presence of unlabeled glycine. To determine potencies, a range of concentrations of the compounds of the present invention can be added to the cells, followed by the fixed concentration of [^14C]-glycine. The concentration of the present compound that inhibited half of the specific uptake of [^14C]glycine (IC50 value) can be determined from the assay data by non-linear curve fitting.

Structures are written as SMILES. Where two headings read alike, the source gives them in different places. Bounds are passed on as bounds.

Take `Cn1cnc(S(=O)(=O)N2CC(C(NC(=O)c3ccc(Cl)cc3Cl)c3ccccn3)C2)c1` (single isomer, unassigned) [Compound 7a]: under “values given in μM”, the IC50 was above 10 µM.
On to `Cn1cnc(S(=O)(=O)N2CC(C(NC(=O)c3ccc(Cl)cc3Cl)c3ccccn3)C2)c1` (single isomer, unassigned) [Compound 7b, 2,4-dichloro-N-((1(1-methyl-1H-imidazol-4-ylsulfonyl)azetidin-3-yl)(pyridine-2-yl)methyl)benzamide], for which the IC50 (values in nM) was 0.009 µM.
As for `Cn1cnc(S(=O)(=O)N2CC(C(NC(=O)c3ccc(Cl)cc3Cl)c3ccccn3)C2)c1` (stereo not drawn) [Compound 7], under “values in nM”, the IC50 is 0.068 µM.

As usually defined, the IC50 is the concentration at which inhibition is half-maximal.
